Test results as given in patent publication US5714615A (priority 1994, dated 1998).

The chains behind the UniProt entries cited, without tags or fusion partners. Residues count along the entry.
UniProt P22303, 32-617 isoform 2 limits assumed: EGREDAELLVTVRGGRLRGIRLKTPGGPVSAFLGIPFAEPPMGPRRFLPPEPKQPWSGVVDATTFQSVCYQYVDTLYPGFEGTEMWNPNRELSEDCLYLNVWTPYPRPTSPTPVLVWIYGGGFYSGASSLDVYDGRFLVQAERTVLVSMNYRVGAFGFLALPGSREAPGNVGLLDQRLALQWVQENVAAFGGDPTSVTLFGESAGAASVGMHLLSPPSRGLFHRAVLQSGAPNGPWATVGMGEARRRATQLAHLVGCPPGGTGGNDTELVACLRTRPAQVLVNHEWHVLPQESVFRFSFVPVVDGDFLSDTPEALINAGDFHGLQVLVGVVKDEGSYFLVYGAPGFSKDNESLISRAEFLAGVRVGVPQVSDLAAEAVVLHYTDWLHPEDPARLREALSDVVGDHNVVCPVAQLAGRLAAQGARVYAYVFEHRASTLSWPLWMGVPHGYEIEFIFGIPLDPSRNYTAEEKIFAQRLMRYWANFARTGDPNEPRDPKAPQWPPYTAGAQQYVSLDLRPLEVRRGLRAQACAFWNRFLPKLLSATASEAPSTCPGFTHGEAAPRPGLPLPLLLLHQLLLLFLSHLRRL
UniProt O42275, 24-633 limits assumed: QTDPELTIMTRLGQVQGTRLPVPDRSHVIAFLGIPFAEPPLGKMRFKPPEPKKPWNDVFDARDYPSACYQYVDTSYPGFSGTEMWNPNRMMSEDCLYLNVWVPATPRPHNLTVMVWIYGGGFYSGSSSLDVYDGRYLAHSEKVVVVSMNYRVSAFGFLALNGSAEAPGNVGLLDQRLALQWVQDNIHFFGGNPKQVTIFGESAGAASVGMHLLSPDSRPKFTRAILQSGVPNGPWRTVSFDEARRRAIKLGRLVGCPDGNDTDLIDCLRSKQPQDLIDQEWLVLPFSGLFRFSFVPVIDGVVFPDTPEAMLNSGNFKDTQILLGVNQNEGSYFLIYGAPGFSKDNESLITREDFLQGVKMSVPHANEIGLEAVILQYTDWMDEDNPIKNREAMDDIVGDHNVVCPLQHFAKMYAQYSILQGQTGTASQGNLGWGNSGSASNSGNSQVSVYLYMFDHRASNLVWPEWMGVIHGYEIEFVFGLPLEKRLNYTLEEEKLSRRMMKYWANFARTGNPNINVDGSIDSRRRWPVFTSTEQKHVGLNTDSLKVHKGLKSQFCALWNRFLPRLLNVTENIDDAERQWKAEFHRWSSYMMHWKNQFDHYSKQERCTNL

Assays:
[1] = biological target: human erythrocyte acetylcholinesterase (Homo sapiens, UniProt P22303); assay: Irreversible inhibition of human erythrocyte AChE; assay type: biochemical; conditions: for anti AChE activity with human AChE relative to pyridostigmine and physostigmine: in vitro; for kobs/[I] (human): second order inhibition rate constant
acetylcholinesterase = assay: Irreversible inhibition of AChE, species of enzyme not stated
[2] = biological target: electric eel acetylcholinesterase (Electrophorus electricus, UniProt O42275); assay: Irreversible inhibition of electric eel AChE; assay type: biochemical; conditions: second order inhibition rate constant
electric eel AChE = electric eel AChE (Electrophorus electricus, UniProt O42275); assay: Reversible (competitive) inhibition of electric eel AChE; assay type: biochemical

## COc1ccc(CON=Cc2c(OC(=O)N(C)C)ccc[n+]2C)cc1
[1]
  anti AChE activity with human AChE relative to pyridostigmine and physostigmine: greater anti AChE activity in vitro with human AChE than either pyridostigmine or physostigmine
acetylcholinesterase
  half-life for inactivation of AChE: about 9 sec
[2]
  kobs/[I] (eel): 5000 M⁻¹ s⁻¹

## CN(C)C(=O)Oc1ccc[n+](C)c1C=NNc1c(Cl)cc(Cl)cc1Cl
Electric eel AChE; 0.15 mM inhibitor
  % Inhibition: 48%
Electric eel AChE; 0.35 mM inhibitor
  % Inhibition: 75%
Electric eel AChE; 0.45 mM inhibitor
  % Inhibition: 82%

## CN(C)C(=O)Oc1ccc[n+](C)c1C=NNC(N)=O
[1]
  kobs/[I] (human): 2200 M⁻¹ s⁻¹
[2]
  kobs/[I] (eel): 25 M⁻¹ s⁻¹

## CN(C)C(=O)Oc1ccc[n+](C)c1C=NOCc1ccccc1
[1]
  anti AChE activity with human AChE relative to pyridostigmine and physostigmine: greater anti AChE activity in vitro with human AChE than either pyridostigmine or physostigmine
  kobs/[I] (human): 68000 M⁻¹ s⁻¹
[2]
  kobs/[I] (eel): 1700 M⁻¹ s⁻¹

## CN(C)C(=O)Oc1ccc[n+](C)c1C=NOC(c1ccccc1)c1ccccc1
[1]
  kobs/[I] (human): 1100 M⁻¹ s⁻¹
[2]
  kobs/[I] (eel): 870 M⁻¹ s⁻¹
